Laboratory results as given in patent publication US8921376B2, “Pyrrolopyridines useful as inhibitors of protein kinase” (Vertex Pharmaceuticals Incorporated, priority 2005, dated 2014).

Amino acid sequences for entries named in this document (tags omitted).
UniProt O60674, whole entry: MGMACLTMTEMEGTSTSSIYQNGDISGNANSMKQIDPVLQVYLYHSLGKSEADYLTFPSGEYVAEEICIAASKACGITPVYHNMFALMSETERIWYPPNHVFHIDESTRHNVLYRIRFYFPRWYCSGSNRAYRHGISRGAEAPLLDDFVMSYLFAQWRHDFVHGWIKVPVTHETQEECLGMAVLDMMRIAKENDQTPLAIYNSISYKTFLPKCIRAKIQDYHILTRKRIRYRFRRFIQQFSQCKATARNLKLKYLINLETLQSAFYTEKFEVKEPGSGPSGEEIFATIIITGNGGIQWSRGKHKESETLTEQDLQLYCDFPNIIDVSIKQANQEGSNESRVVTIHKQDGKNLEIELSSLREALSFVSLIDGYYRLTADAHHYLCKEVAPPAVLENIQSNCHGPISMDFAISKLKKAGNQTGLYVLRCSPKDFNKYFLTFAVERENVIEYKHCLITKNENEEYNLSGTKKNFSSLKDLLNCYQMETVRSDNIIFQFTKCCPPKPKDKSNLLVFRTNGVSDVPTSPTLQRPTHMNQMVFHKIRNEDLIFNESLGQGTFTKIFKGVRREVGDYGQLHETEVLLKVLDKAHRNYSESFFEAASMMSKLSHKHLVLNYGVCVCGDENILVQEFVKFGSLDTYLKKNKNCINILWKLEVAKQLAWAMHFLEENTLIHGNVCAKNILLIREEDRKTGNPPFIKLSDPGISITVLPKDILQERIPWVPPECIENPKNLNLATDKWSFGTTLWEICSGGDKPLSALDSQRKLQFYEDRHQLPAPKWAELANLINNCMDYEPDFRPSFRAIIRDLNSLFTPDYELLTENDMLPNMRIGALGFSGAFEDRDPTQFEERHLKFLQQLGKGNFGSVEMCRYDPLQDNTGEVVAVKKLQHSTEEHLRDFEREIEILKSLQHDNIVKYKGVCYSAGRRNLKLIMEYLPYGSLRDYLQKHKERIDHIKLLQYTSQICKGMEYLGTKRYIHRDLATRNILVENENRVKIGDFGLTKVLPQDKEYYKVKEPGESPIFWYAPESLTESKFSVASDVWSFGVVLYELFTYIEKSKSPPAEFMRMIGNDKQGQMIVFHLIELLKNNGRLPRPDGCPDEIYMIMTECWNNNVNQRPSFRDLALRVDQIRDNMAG
UniProt Q13464, whole entry: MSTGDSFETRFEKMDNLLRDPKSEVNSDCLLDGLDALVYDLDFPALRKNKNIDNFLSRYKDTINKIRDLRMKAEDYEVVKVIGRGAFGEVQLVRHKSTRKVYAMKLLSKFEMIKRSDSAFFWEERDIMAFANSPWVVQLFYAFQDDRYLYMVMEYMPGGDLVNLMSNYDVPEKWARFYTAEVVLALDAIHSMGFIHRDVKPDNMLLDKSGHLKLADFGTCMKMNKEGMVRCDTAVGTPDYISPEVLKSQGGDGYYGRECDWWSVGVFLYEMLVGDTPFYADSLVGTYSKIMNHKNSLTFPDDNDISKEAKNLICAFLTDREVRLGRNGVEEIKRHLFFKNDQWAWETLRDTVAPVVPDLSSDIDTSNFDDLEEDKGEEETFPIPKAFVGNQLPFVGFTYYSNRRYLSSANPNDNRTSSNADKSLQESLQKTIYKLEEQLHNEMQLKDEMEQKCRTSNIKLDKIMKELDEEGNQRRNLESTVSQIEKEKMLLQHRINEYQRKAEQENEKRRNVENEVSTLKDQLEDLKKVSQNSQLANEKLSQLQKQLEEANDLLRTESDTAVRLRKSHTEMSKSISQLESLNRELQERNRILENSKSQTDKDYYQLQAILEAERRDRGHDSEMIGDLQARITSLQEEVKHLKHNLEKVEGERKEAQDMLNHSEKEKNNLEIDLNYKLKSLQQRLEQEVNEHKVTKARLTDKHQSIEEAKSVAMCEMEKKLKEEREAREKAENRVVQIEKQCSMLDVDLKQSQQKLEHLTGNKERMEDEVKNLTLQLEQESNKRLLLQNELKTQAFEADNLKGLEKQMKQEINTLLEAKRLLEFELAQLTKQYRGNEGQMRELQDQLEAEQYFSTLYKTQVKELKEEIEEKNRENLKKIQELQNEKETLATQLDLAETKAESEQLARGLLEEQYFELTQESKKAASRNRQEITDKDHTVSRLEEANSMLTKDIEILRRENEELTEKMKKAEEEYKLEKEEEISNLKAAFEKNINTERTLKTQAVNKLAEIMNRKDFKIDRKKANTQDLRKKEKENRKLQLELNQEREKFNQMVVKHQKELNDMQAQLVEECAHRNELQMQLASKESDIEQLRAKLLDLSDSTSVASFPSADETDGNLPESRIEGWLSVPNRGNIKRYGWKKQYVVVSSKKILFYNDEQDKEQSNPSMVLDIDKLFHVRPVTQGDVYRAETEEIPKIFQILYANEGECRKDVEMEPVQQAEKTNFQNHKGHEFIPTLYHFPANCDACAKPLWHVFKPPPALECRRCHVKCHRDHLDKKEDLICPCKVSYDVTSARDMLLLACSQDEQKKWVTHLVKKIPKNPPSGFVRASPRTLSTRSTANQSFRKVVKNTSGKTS
UniProt P52333, whole entry: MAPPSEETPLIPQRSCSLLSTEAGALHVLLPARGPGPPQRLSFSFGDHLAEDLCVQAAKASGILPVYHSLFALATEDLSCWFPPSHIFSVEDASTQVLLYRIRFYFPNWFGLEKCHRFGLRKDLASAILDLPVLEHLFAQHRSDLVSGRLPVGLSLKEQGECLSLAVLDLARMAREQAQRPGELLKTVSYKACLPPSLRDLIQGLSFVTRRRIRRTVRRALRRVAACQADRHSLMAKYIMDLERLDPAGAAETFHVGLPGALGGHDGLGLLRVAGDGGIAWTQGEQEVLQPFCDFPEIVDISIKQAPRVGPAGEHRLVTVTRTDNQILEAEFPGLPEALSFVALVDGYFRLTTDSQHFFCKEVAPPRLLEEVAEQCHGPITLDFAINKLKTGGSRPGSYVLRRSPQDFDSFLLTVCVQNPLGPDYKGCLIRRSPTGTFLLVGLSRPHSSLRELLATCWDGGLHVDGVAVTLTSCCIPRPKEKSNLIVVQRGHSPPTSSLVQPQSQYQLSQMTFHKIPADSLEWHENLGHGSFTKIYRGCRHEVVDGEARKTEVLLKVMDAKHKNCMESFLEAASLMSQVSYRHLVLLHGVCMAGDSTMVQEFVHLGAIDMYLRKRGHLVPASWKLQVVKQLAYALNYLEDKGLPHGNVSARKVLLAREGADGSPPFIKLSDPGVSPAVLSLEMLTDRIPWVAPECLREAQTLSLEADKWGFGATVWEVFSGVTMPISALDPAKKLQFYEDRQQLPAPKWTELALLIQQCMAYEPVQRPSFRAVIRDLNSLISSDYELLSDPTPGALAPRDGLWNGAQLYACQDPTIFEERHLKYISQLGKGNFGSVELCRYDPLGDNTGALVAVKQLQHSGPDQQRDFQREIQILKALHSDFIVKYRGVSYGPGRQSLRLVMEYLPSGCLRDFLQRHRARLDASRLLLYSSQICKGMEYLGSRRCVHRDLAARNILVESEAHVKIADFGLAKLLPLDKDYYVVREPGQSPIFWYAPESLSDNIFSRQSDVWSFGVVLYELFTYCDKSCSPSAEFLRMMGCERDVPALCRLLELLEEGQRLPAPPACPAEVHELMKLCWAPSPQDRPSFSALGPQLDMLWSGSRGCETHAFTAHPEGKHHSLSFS

Assays:
[1] = molecular target: JAK2 (Homo sapiens, UniProt O60674); experiment: JAK2 inhibition assay (as Example 3 with JAK-2 enzyme); conditions: read-out: JAK2 Ki; Table 6; enzyme inhibition data (Ki)
[2] = molecular target: ROCK I (Homo sapiens, UniProt Q13464); experiment: ROCK-I inhibition assay (radioactive enzyme assay, MBP substrate); conditions: read-out: ROCK I Ki; Table 6; enzyme inhibition data (Ki)
Procedure: Compounds were screened for their ability to inhibit ROCK using a standard radioactive enzyme assay. Assays were carried out in a solution containing 100 mM HEPES (pH 7.5), 10 mM MgCl2, 25 mM NaCl, 2 mM DTT, and 1.5% DMSO. Final substrate concentrations in the assay were 13 μM [γ-^33P] ATP (25 mCi ^33P ATP/mmol ATP, Perkin Elmer, Cambridge, Mass./Sigma Chemicals, St Louis, Mo.) and 27 μM Myelin Basic Protein (MBP). Final enzyme concentration in the assay was 5 nM ROCK. Assays were carried out at room temperature. 1.5 μl of DMSO stock containing serial dilutions of the compound of the present invention (concentrations ranging from 10 μM to 2.6 nM) was placed in a 96 well plate. 50 μl of Solution 1 (100 mM HEPES (pH 7.5), 10 mM MgCl2, […]) was added to the plate. The reaction was initiated by addition of 50 μl of Solution 2 (100 mM HEPES (pH 7.5), 10 mM MgCl2, 4 mM DTT, […] and 10 nM ROCK). After 2 hours the reaction was quenched with 50 μL of 30% trichloroacetic acid (TCA, Fisher) containing 9 mM ATP. Transfer of 140 μL of the quenched reaction to a glass fiber filter plate (Corning, Cat. No. 3511) was followed by washing 3 times with 5% TCA. 50 μl of Optima Gold scintillation fluid (Perkin Elmer) was added and the plates were counted on a Top Count (Perkin Elmer). […]

[3] = molecular target: JAK3 (Homo sapiens, UniProt P52333); experiment: JAK3 inhibition assay (33P incorporation into poly(Glu)4Tyr); conditions: read-out: JAK3 Ki; Table 6; enzyme inhibition data (Ki)

Measured: Ki

Clc1cnc2[nH]ccc2c1N[C@H]1CCN(Cc2ccccc2)C1
< 0.5 µM: all assays above
